This note sets out measurements from ChEMBL document CHEMBL2062445, “Synthesis and nicotinic receptor activity of chemical space analogues of N-(3R)-1-azabicyclo[2.2.2]oct-3-yl-4-chlorobenzamide (PNU-282,987) and 1,4-diazabicyclo[3.2.2]nonane-4-carboxylic acid 4-bromophenyl ester (SSR180711)” (J Med Chem, 2012).

Sequences of proteins named here, by UniProt entry; tags and fusion partners are left off. Residues count along the entry.
UniProt P36544, 23-502 limits assumed: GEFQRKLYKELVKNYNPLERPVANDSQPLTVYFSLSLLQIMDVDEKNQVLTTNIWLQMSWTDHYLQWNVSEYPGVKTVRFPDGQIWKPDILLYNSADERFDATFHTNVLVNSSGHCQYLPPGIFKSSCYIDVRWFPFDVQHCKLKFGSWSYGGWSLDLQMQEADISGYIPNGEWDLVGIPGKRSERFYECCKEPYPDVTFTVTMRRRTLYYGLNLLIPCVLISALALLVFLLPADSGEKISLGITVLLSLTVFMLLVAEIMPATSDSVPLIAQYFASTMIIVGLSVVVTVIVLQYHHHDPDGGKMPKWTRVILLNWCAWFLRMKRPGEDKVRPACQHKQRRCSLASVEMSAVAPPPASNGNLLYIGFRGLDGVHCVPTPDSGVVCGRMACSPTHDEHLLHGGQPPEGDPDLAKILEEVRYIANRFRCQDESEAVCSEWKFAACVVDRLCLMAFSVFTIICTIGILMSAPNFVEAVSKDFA

The assay has as its target Neuronal acetylcholine receptor subunit alpha-7 (Homo sapiens, UniProt P36544). The assay is described as follows: Antagonist activity at human alpha7 nAChR expressed in Xenopus oocyte assessed as inhibition of ACh-induced current at 10 uM after 30 secs by electrophysiological assay. It is filed as functional.

By inhibition is commonly meant how much of the control response was suppressed. On to `O=C(N[C@@H]1CCCC[C@H]1N1CCCCC1)C1COc2ccccc2O1` (stereo partly specified), for which the inhibition stood at 67%.
